{"source": "patent US20060018915A1", "about": "(EPIMUNNE, published 2006)", "binders": {"B1": {"name": "MAGE2.157 F5 (peptide)", "peptide": "YLQLFFGIEV", "notes": "analog"}, "B2": {"name": "MAGE2.157 I5 (peptide)", "peptide": "YLQLIFGIEV", "notes": "analog"}, "B3": {"name": "CEA.691 (peptide)", "peptide": "IMIGVLVGV"}, "B4": {"name": "CEA.691 H5 (peptide)", "peptide": "IMIGHLVGV", "notes": "analog"}, "B5": {"name": "CEA.691 M3 (peptide)", "peptide": "IMMGVLVGV", "notes": "analog"}, "B6": {"name": "MAGE3.112 I5 (peptide)", "peptide": "KVAEIVHFL", "notes": "analog"}, "B7": {"name": "MAGE2.282F10 (peptide)", "peptide": "SYVKVLHHTF", "notes": "also called 57.0088"}, "B8": {"name": "CEA.418.D3 (peptide)", "peptide": "PTDSPSYTYY", "notes": "also called 57.0104"}, "B9": {"name": "MAGE2.179.D3 (peptide)", "peptide": "VTDLGLSY", "notes": "also called 57.0003"}}, "data": [{"molecular_target": "T1, HLA-A2.1 (human)", "T1 construct": "MHC class I molecule, purified; also called purified HLA-A2.1 molecules", "test": "competition with radiolabeled HBV Core.18 peptide for purified HLA-A2.1", "units": {"IC50": "µM"}, "values": [{"binder": "B1", "IC50": 0.212}, {"binder": "B2", "IC50": 0.476}, {"binder": "B3", "IC50": 0.054}, {"binder": "B4", "IC50": 0.016}, {"binder": "B5", "IC50": 0.027}, {"binder": "B6", "IC50": 0.066}]}, {"molecular_target": "T2, A*2402 (human)", "T2 construct": "MHC class I molecule; form in the assay not described; also called HLA-A*2402", "test": "HLA binding, candidate-epitope table; assay not described", "units": {"IC50": "µM"}, "values": [{"binder": "B7", "IC50": 0.034}]}, {"molecular_target": "T3, A*0101 (human, UniProt P61769 21-119)", "T3 construct": "MHC class I molecule; form in the assay not described; also called HLA-A*0101", "test": "HLA binding, candidate-epitope table; assay not described", "units": {"IC50": "µM"}, "values": [{"binder": "B8", "IC50": 0.0011}, {"binder": "B9", "IC50": 0.0027}]}]}
